This is an account of results in publication PMC10975748 (2024).

One experiment addresses KCa3.1 (Homo sapiens, UniProt O15554). Nature of the experiment: patch-clamp electrophysiology.
For the next experiment, the target named is KCa2.2 (Homo sapiens, UniProt Q9H2S1). Put plainly: patch-clamp electrophysiology.

TFINHKCKSSSECLPACKAAIGRASGKCINSTCKCYY [Cm39]: the Kd with KCa3.1 stood at 59 nM; with KCa2.2, 575 nM.
